Reference: US6005007A, “Retinoids, methods for their production and use” (priority 1997, dated 1999)

Test system: ME 180
Test: Incorporation of 3H-thymidine, ME 180
Type: cell-based
Settings: Homo sapiens, ME-180, read-out: TdR IC50 ME 180 (nM)

## CC1=C(/C=C/C(C)=C/C=C/C(C)=C/C(=O)O)C(C)(C)CCC1 [ATRA, all-trans retinoic acid]
  IC50: 253 nM
